Values of other authors as cited in patent publication US6703042B1, “Salts of L-carnitine and lower alkanoyl L-carnitine” (Sigma-Tau Industries Farmaceutiche Riunite S.p.A., priority 1999, dated 2004).

Settings: background statement; cited from earlier work

Substance	Hygroscopicity (known salts, prior art)
acetyl L(−)-carnitine tartrate	strongly hygroscopic
acetyl L-carnitine acid L-aspartate	non-hygroscopic
